Experiments:
[1] = molecular target: BSA (bovine) (UniProt P02769); assay: enzyme-linked binding assay (ELISA format), HRPO-coupled protein on immobilized BSA
[2] = molecular target: human collagen type I (human) (UniProt P02452); assay: enzyme-linked binding assay (ELISA format), HRPO-coupled protein on immobilized matrix protein
[3] = molecular target: human laminin (human); assay: as above
[4] = molecular target: human fibronectin (human) (UniProt P02751); assay: as above

OD492 [1] | OD492 [2] | OD492 [3] | OD492 [4] | Substance
0.033 OD492 | 0.104 OD492 | 0.06 OD492 |  | recombinant purified maltose-binding protein, coupled to horseradish peroxidase (from UniProt P0AEX9 27-392)
 |  |  | 0.042 OD492 | recombinant purified maltose-binding protein, coupled to horseradish peroxidase (from UniProt P0AEX9 27-392) (other; other documents disagree on this pair)
